Experimental data as given in paper PMC10332445 (Journal of medicinal chemistry, 2023).

By UniProt entry, the sequences of proteins in these tests, tags left out. Where a name states a change or a piece, a line headed by the entry shows the natural chain unless it says otherwise.
UniProt Q96SW2: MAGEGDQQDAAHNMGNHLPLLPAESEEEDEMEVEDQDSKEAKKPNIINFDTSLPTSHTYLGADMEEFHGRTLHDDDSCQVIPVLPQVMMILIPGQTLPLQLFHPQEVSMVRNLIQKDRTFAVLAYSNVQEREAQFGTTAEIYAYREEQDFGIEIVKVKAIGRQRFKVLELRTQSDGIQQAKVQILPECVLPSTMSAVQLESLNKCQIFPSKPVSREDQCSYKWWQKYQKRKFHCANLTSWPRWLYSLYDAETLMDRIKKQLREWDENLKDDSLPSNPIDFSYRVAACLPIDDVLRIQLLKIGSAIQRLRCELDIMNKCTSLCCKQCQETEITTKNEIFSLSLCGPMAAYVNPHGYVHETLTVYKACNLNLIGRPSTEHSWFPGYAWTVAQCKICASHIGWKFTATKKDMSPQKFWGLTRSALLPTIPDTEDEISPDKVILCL

Biological target: CRBN (Homo sapiens, UniProt Q96SW2)
Experiment: NanoBRET live-cell target engagement of CRBN in HEK293 cells
Type: cell-based
Conditions: number in parentheses, 37 °C

Hill slope, CRBN target engagement: 0.8
SMILES: Nc1cccc2c1C(=O)N(C1CCC(=O)NC1=O)C2=O (stereo not shown) [Pomalidomide, pomalidomide, reference compound]
